Each structure is given as a SMILES string.

Experimental findings from publication PMC6722387 (Cellular and Molecular Gastroenterology and Hepatology, 2019) are described below.

The series relates to human iPS-IECMs. The series is described as follows: FD-4 permeability test across human iPS-IECMs. Format: in vitro ADME. The conditions noted are these: 13 mM n-capric acid (C10) in apical chamber, 90 min.

As to `CCCCCCCCCC(=O)O` [C10, n-capric acid], the “FD-4 Papp change by C10 treatment” value was “increased”.
